This note sets out measurements from US20130245084A1, “CALCIUM-SENSING RECEPTOR-ACTIVE COMPOUNDS” (LEO PHARMA A/S, priority 2010, published 2013).

By UniProt entry, the sequences of proteins in these tests, tags left out. Residues count along the entry.
UniProt P41180, 20-1078 limits assumed: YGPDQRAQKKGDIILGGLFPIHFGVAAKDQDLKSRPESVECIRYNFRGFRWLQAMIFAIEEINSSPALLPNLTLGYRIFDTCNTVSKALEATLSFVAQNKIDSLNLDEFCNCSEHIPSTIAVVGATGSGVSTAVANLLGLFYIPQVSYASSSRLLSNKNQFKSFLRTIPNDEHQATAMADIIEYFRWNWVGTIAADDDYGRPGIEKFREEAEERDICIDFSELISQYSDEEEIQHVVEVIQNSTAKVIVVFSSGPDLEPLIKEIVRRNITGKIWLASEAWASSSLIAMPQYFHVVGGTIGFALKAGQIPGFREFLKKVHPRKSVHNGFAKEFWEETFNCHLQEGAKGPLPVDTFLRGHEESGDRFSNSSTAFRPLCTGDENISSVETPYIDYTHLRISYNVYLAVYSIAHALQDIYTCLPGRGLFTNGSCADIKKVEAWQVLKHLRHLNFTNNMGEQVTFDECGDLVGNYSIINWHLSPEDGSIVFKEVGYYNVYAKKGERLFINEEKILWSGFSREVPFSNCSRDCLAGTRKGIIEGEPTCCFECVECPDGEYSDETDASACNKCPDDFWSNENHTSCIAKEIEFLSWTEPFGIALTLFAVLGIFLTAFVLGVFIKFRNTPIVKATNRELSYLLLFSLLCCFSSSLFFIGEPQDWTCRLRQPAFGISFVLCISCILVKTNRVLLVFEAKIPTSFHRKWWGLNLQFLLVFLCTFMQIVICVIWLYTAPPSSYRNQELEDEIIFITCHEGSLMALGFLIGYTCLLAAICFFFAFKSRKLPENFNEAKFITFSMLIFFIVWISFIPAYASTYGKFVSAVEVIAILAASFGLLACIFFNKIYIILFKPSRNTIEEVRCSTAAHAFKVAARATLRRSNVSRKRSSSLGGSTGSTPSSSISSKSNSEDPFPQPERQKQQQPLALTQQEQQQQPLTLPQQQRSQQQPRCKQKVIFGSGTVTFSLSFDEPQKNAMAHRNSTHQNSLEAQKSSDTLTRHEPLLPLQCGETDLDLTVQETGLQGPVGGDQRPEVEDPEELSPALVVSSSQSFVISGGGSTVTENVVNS

For this assay, the target named is human CaSR (Homo sapiens, UniProt P41180). Kind of assay: Functional whole cell assay (modulation of human CaSR), IP1 accumulation in CHO-K1 cells. Particulars: read-out: Functional whole cell assay (modulation of human CaSR); CHO-K1 cells stably expressing human CaSR, final Ca2+ 1.9 mM, IP1 HTRF; concentration giving 50% of maximum agonistic response. The source says: The assay investigates a compound's functional ability to act as a biological positive modulator on the human CaSR. Activation of the receptor expressed on CHO-K1 cells is detected through the G alpha q pathway, the activation of phospholipase C and the accumulation of intracellular inositol phosphate (IP) as described earlier [Sandrine Ferry, Bruno Chatel, Robert H. Dodd, Christine Lair, Danielle Gully, Jean-Pierre Maffrand, and Martial Ruat. Effects of Divalent Cations and of a Calcimimetic on Adrenocorticotropic Hormone Release in Pituitary Tumor Cells. Biochemical and biophysical research Communications 238, 866-873 (1997)]. The human CaSR is stably expressed on a CHO-K1 cell clone, stimulated with a basal level of calcium and challenged with the tested compound. The level of IP1 is determined using the IP-One Terbium htrf kit (Cisbio, France). CHO-K1 cells not transfected with the CaSR fail to elicit an IP1 response upon calcium and/or compound stimulation.
The ORF coding for the human CaSR (genebank: NM_000388) was acquired from Invitrogen Corp, USA and subsequently cloned into the mammalian expression vector pCDA3.1.
CHO-K1 cells were transfected using Lipofectamine according to manufacturer's protocol (400.000 cells/well were seeded in a 6-well plate and transfected after 24 hours using 2 μg DNA and 5 μl lipofectamine). After another 24 hours the cells were detached, seeded and subjected to 1 mg/ml of G-418. Following 7 days growth single clones were picked, the CaSR expression evaluated using the 5C10 antibody against CaSR, the clones with the highest expression were selected and tested for functional response. […]
On the assay day, cells were thawed, harvested and resuspended to 4*10^6 cells/ml in stimulation buffer (containing: Hepes 10 mM, MgCl2 0.5 mM, KCl 4.2 mM, NaCl 146 mM, glucose 5.5 mM, LiCl 50 mM, BSA 0.5% at pH 7.4). […] Finally the plate was read using a Perkin Elmer EnVision, according to the protocol supplied by the IP-One assay kit manufacturer. The FRET ratio was calculated by dividing the 665 nm emission signal with that of the 615 nm. […]
For the compound `C[C@@H](NC1CCCC(c2ccc(C(=O)NCCN3CCOCC3)cc2)C1)c1cccc2ccccc12` (stereo partly drawn), the EC50 fell in the range of 200 to 1000 nM.

In the case of `CC(=O)NCCNC(=O)c1ccc(C2CCCC(N[C@H](C)c3cccc4ccccc34)C2)cc1` (stereo partly drawn), the EC50 is less than 200 nM.

Regarding `C[C@@H](NC1CCCC(c2ccc(C(=O)NCCN(C)C)cc2)C1)c1cccc2ccccc12` (stereo partly drawn), the EC50 lay within 200 to 1000 nM.
